Assay results: patent publication US6465614B1, “High-affinity response-selective C-terminal analogs of C5a anaphylatoxin” (priority 1994, dated 2002)
Read-outs that look alike come from different tables or passages of the source.

Assays:
Format in all cases: cell-based
[1] = test system: guinea-pig platelets; test: Guinea-pig platelet aggregation assay; conditions: for Platelet Aggreg (threshold concentration producing visible platelet aggregation): guinea-pig platelets, threshold response
Protocol: This assay was performed on platelets obtained from the arterial blood of anesthetized male Hartley guinea pigs according to previously published methods (Ember et al., 1992, supra). Briefly, platelet-rich plasma was prepared and diluted to 3×10^8 platelets/ml in 0.39% sodium citrate solution. Peptide samples were diluted in a stepwise fashion in 1.5-fold dilutions and placed in 96-well microplates. A […] peptide sample, […] of platelet-rich plasma, and one 3 mm glass bead were placed in each well. The plates were shaken horizontally at 100 rpm for 5 min at 37° C. Platelet aggregation was evaluated visually in an inverted microscope at 40× magnification. The greatest dilution of peptide producing visible aggregation was scored as the threshold concentration for activity. Natural C5a and C3a were included as internal standards. At least three independent duplicate determinations were conducted for every peptide.

[2] = target: T1, human neutrophils (PMN) (Homo sapiens, UniProt P21730)
T1 sequence (P21730 1-350): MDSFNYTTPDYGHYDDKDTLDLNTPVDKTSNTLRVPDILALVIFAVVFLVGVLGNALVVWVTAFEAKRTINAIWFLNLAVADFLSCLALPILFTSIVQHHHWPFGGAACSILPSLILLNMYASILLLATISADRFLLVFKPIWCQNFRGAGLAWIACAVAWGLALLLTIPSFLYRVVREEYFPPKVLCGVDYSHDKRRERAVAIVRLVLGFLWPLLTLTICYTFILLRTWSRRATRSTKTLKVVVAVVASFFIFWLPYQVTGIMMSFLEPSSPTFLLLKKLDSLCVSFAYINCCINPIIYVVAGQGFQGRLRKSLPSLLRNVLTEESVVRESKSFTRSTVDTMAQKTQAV
Protocol: Neutrophil polarization assays were conducted as described by Ember et al., 1992, supra. Human neutrophils (PMN) were prepared according to the procedure described by Dahinden et al. (1979), J. Immunol., 130: 857-862. The assay for measuring the effect of C5a analogs on PMN polarization was described by Haston & Shields (1985), J. Immunol. Methods, 81: 229-237. Briefly, PMN (1×10^6 cells/ml) were suspended in 10 mM 3- (N-morpholino) propane sulfonic acid (Sigma Chemical Co.) containing EBSS. […] After 10 minutes of incubation at room temperature, the cells were washed twice and stored until microscopic examination. Cells deviating from the typical spherical shape were visually scored as polarized. Results are expressed as percent of polarized cells per total cells counted (300 cells counted/sample).

[3] = target: T1, human neutrophils (PMN); remark: listed apart in the source
Protocol: The release of glucuronidase from human neutrophils was determined as described by Schroder et al. (1987), J. Immunol., 139: 3474-3483. Briefly, human neutrophils were pretreated with cytochalasin B (5 μg/ml, 10 min, 37° C.). The cells (10^6) were incubated in the presence of stimulants for 60 minutes at 37° C. in a final volume of 200 μl and then centrifuged. The supernatant was collected and 50 μl were incubated with 50 μl of 0.01 M P-nitrophenyl-β-D-glucuronide (in 0.1 M sodium acetate at pH 4 for 18 h) as triplicate determinations in 96-well microtiter plates (Corning). The reaction was stopped by addition of 100 μl of 0.4 M gly buffer at pH 10. The reaction developed color that was read at 405 nm in a Titertec Multiscan (MCC/340) ELISA reader. The β-glucuronidase released was expressed as the percentage of total enzyme in the cell that could be released by addition of 0.2% Triton X-100 (Pierce).

[4] = target: T2, human fetal artery (Homo sapiens, UniProt P21730); test: Smooth muscle contraction of human fetal artery (spasmogenic assay)
T2 sequence (P21730 1-350): T1 sequence (P21730 1-350)
Protocol: Tissue strips were suspended in 2 ml organ baths, containing physiological salt solution (Krebs-Ringers solution: 118 mM NaCl, 4.7 mM KCl, 2.5 mM CaCl2, 25 mM NaHCO3, 1.2 mM KH2PO4, 1.2 mM MgSO4, 10 mM Glucose) maintained at 37° C., pH 7.4 and continuously aerated with a […] mixture. Each tissue preparation was equilibrated for 1 hr prior to testing with peptides. All drugs were kept on ice during the procedure and isometric tensions were measured using strain-gauge transducers (Grass FT-03) with a computerized chart recording system (MacLab/8). After the contraction to each peptide reached a plateau, histamine (10 μM) was added to obtain the maximum tissue response. Because tachyphylaxis occurs rapidly to single doses of C5a or peptides, cumulative dose-response curves could not be obtained. […] After exposing each strip to a single concentration of the peptide followed by supramaximal histamine, the response was expressed as a percentage of the maximal contraction to histamine. Full dose-response curves for C5a (human recombinant C5a; Sigma) or individual peptides were performed in each experiment for each tissue and the EC50 values (i.e., concentration of peptide producing 50t of the maximal response to each peptide) obtained by probit analysis. pD2 transforms [−log EC50 (M)] were calculated for each dose-response curve, and means ±SE obtained for each peptide. […]

Row | EC50 [2] [µM] | EC50 [3] [µM] | spasmogenic activity compared with peptide 10 ([4]; in words) | potency relative to natural C5a for elicitation of a spasmogenic response (Class 1) ([4]; smooth muscle contraction assay, percent of natural/full C5a potency) | Structure (SMILES) | Platelet Aggreg (threshold concentration producing visible platelet aggregation) [1] [µM] | platelet aggregation potency compared with peptide 10 ([1]; in words)
1 | 4 | 114 |  |  | CSCC[C@H](NC(=O)[C@H](CC(=O)O)NC(=O)[C@H](CCCCN)NC(=O)[C@H](Cc1ccccc1)NC(=O)[C@H](CO)NC(=O)[C@@H](N)Cc1ccc(O)cc1)C(=O)N1CCC[C@H]1C(=O)N[C@@H](CC(C)C)C(=O)N[C@H](Cc1ccccc1)C(=O)N[C@@H](CCCNC(=N)N)C(=O)O [peptide 13] | 2.3 | 
2 | 2.5 | 46.5 |  |  | CSCC[C@H](NC(=O)[C@H](CC(=O)O)NC(=O)[C@H](CCCCN)NC(=O)[C@H](Cc1ccccc1)NC(=O)[C@H](CO)NC(=O)[C@@H](N)Cc1ccc(O)cc1)C(=O)N1CCC[C@H]1C(=O)N[C@@H](CC(C)C)C(=O)N1CCC[C@@H]1C(=O)N[C@@H](CCCNC(=N)N)C(=O)O [peptide 14] | 2.7 | 
3 | 5.6 |  |  |  | CSCC[C@H](NC(=O)[C@H](CC(=O)O)NC(=O)[C@H](CCCCN)NC(=O)[C@H](Cc1ccccc1)NC(=O)[C@H](CO)NC(=O)[C@@H](N)Cc1ccc(O)cc1)C(=O)N1CCC[C@H]1C(=O)N[C@@H](C)C(=O)N[C@H](C)C(=O)N[C@@H](CCCNC(=N)N)C(=O)O [peptide 12] | 90 | 
4 | 2.3 | 114 | equipotent | 4-5% | CC(C)C[C@H](NC(=O)[C@@H]1CCCN1C(=O)[C@H](C)NC(=O)[C@H](CC(=O)O)NC(=O)[C@H](CCCCN)NC(=O)[C@H](Cc1ccccc1)NC(=O)[C@H](CO)NC(=O)[C@@H](N)Cc1ccc(O)cc1)C(=O)N[C@H](C)C(=O)N[C@@H](CCCNC(=N)N)C(=O)O [peptide 19] | 0.54 | about twice as potent
